Measured values reported in ChEMBL document CHEMBL4804282, “Quinoline-based compounds and methods of inhibiting cdk8/19” (2020).
The source made the active and inactive calls. No cut-off for these calls is given here.

By UniProt entry, the sequences of proteins in these tests, tags left out. Where a name states a change or a piece, a line headed by the entry shows the natural chain unless it says otherwise.
UniProt P49336: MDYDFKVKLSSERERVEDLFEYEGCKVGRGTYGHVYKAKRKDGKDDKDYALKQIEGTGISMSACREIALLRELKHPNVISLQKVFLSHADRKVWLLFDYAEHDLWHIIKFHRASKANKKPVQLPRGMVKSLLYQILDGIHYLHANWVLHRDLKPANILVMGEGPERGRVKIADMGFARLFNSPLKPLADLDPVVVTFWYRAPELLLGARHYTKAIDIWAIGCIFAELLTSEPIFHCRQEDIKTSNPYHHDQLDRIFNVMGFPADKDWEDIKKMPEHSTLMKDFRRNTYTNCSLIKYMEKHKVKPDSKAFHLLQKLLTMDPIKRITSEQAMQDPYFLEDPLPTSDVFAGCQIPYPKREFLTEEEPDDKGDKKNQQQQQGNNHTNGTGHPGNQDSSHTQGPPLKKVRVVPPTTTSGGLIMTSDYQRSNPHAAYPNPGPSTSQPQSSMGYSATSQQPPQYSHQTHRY
UniProt Q9BWU1: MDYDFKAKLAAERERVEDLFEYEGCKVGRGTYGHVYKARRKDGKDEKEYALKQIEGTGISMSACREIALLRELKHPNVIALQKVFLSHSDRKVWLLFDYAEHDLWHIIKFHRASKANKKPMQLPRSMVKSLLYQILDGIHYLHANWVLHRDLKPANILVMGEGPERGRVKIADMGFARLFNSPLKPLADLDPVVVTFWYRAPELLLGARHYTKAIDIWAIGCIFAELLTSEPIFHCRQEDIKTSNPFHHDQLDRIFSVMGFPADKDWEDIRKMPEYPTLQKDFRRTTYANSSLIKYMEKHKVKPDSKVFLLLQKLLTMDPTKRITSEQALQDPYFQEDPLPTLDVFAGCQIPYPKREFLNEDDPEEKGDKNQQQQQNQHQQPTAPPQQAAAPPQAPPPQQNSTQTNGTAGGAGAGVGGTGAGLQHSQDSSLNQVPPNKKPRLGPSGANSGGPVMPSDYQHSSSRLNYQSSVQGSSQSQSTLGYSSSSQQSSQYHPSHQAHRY

Tests used:
[1] = target: T1, Cyclin-dependent kinase 8/19 (Homo sapiens) (UniProt P49336+Q9BWU1); assay: Inhibition of CDK8/CDK19 in HEK293 cells assessed as reduction in JUN expression at 1 uM incubated for 2 hrs and measured after 24 hrs of compound wash-off; assay type: cell-based
[2] = target: T1, Cyclin-dependent kinase 8/19 (Homo sapiens); assay: Inhibition of CDK8/CDK19 in HEK293 cells assessed as reduction in MYC expression at 1 uM incubated for 2 hrs and measured after 24 hrs of compound wash-off; assay type: cell-based

For `CN1CCN(C(=O)c2ccc3cc(CCNc4ncnc5ccc(C#N)cc45)ccc3c2)CC1` [SENEXIN B], the inhibition [1] was “Active” and the inhibition [2] was “Active”.
